## Apparent affinities of Ab-14 variants for a coronavirus HR2 peptide

Source: Engelhart et al. 2022 (doi:10.1038/s41597-022-01779-4), MIT Lincoln Laboratory and A-Alpha Bio; data file from the FLAb repository.

Binding partner: SARS-CoV-2 spike HR2 peptide, sequence PDVDLGDISGINAS.

Parent: Ab-14, a human scFv built as VH, the linker GGGGSGGGGSGGGGS, VL. Only the CDRs of the heavy chain vary.
VH: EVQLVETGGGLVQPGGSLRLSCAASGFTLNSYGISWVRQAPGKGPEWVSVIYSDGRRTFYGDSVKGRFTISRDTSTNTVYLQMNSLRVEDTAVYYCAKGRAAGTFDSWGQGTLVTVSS
VL: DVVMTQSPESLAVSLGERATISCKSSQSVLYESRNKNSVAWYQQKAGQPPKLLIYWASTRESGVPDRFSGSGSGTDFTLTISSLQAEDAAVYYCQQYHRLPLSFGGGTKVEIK

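Phage display of a naive human antibody library on the peptide gave the parent. Variants in AAYL49 differ from the parent at up to three CDR positions; double and triple changes were sampled at random. The assay is AlphaSeq: two haploid yeast populations carry antibody and antigen on their surface. Pairs that bind mate more often; barcode pairs of the diploids are counted by sequencing. Read counts were normalised to the haploid input and turned into Kd by a linear fit to BCL2-family pairs of known affinity, for each replicate. There are three technical replicates.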

Each variant is given by its three heavy chain CDRs, as the data file delimits them; those of the parent are GFTLNSYGIS, VIYSDGRRTFYGDSVK, GRAAGTFDS. Numbers give log10(Kd / nM), so 0 is 1 nM and 3 is 1 µM. Smaller is tighter. Where no diploid with the target was found in that replicate, the entry reads "nd": below detection, most likely a poor binder, though not proof of it. As a blank, each scFv also met three strains without target: over library AAYL49, 15% of these pairings were detected, typically at 4.06 and seldom below 2.83. For each scFv, signals with the empty controls are counted beside the result, with their mean in brackets.

| CDR-H1 | CDR-H2 | CDR-H3 | log10 Kd, replicates | signal with controls |
|---|---|---|---|---|
| GFTLNSYGIW | VIYSDGRRTFYGDYVK | TRAAGTFDS | nd / nd / nd | 0 of 9 |
| YFTLNSYGIS | VIYSDGQRTVYGDSVK | GRAAGTFDS | 3.21 / 2.80 / nd | 1 of 9 (3.49) |
| GFTLNSYFIS | VIYSDGRRTFYGDSVW | GRAWGTFDS | 4.54 / 4.52 / nd | 3 of 9 (4.84) |
| GFLLGSYGIS | VIYSDGRRTQYGDSVK | GRAAGTFDS | nd / nd / nd | 0 of 9 |
| GFTLWSYGIS | VIYSDGRRTFEGDSVK | RRAAGTFDS | 5.87 / 4.54 / 3.85 | 2 of 9 (4.05) |
| GFTLNWYGPS | VIYSDGYRTFYGDSVK | GRAAGTFDS | nd / 2.57 / nd | 0 of 9 |
| GFTLNSYGLS | VIYSDGRRTFYGDSVK | GRAAGTFVQ | nd / nd / nd | 0 of 9 |
| GFFLNSYGIS | VIYSDGRRTFYGVSVK | GRAAGTFDC | nd / nd / nd | 0 of 9 |
| GFTLNSYGIS | VINSDGRSTFYGDSVF | GRAAGTFDS | nd / nd / 5.78 | 1 of 9 (4.37) |
| GFTLESYGIS | VIYADGRRTFYGDSVK | GGAAGTFDS | -0.03 / 0.25 / -0.13 | 5 of 9 (5.17) |
| GFTYNSHGIS | VIYSDGRRTFYGDSVK | GRLAGTFDS | 1.82 / 1.94 / 2.13 | 2 of 9 (4.15) |
| GFPCNSNGIS | VIYSDGRRTFYGDSVK | GRAAGTFDS | nd / nd / nd | 0 of 9 |
| GFTLNSEGIS | VIYSDGRRTFYGHSVK | GRAAATFDS | 3.38 / 2.95 / 3.09 | 1 of 9 (4.31) |
| GFTLNSYGPS | VIYIDGRRTFYGDSVK | GRAAGTFMS | nd / nd / nd | 5 of 9 (4.76) |
| GFTLNSYGIS | VIYSDGRRTFYGDSVT | GRAAGTCDS | nd / nd / nd | 1 of 9 (3.20) |
| GFTLNSYEIS | VIYSDGRRTNYGDEVK | GRAAGTFDS | nd / nd / nd | 0 of 9 |
| GFTLNSYGIN | VIYSDGRRTFYGDSVK | GDAAGTFDY | nd / nd / nd | 0 of 9 |
| GFTLNSYGIS | VIYSWGRRTFYGFSVK | GRAAGTSDS | nd / nd / 5.91 | 0 of 9 |
| GFTQNSYGIS | VIYSDGRQTFYGDNVK | GRAAGTFDS | nd / nd / nd | 2 of 9 (3.32) |
| GFTLNSYGAS | VIYSDGRRTFYGDSVN | HRAAGTFDS | nd / nd / nd | 0 of 9 |
| GFTLNSYGIC | VIISDGRRTFYGDSKK | GRAAGTFDS | nd / 4.59 / 4.65 | 3 of 9 (4.15) |
| YFTLNHYGIS | VMYSDGRRTFYGDSVK | GRAAGTFDS | nd / nd / 2.69 | 0 of 9 |
| GFTLNSYGIS | VIYSLGRRTFLGDSVK | GHAAGTFDS | nd / nd / nd | 0 of 9 |
| GFTLNSYGIS | VIYSDGRRTFYGDIVK | GRAAGTQKS | 3.91 / 2.75 / 3.48 | 2 of 9 (4.55) |
| GFTLNSYGIS | VIYSDNRRTFYGDSVK | GRSARTFDS | nd / nd / nd | 0 of 9 |
| GFTLNSYGIS | VGYSDGRRTFYGDSVK | GYAAGTFES | nd / nd / nd | 0 of 9 |
| GFTLNSYGIS | TILSDGSRTFYGDSVK | GRAAGTFDS | 3.99 / nd / nd | 3 of 9 (3.52) |
| GCTLNSYGIS | VIYSDGRRTFYVDSVK | GRAAGTNDS | nd / nd / nd | 0 of 9 |
| GFTLNSYGYS | VIQSDGRRTFYGDSVK | GRAAGDFDS | nd / 4.04 / nd | 1 of 9 (4.22) |
| GFTLNSYGIS | VIYSDGRRTFTGDSVK | VRAAGTFDS | 4.40 / 4.08 / nd | 1 of 9 (3.33) |
| GFTLNSYGVS | VIYSDGVRTFYGDSVK | GRAAGIFDS | nd / 4.67 / nd | 4 of 9 (4.06) |
| GFTLNSYGIF | VIYSDGRRTFYQDSVK | GRAAGEFDS | 4.65 / 3.29 / nd | 2 of 9 (3.77) |
| GFTLNEYGIS | VIYSDIRHTFYGDSVK | GRAAGTFDS | nd / 3.69 / nd | 2 of 9 (4.08) |
| GFNLNSYGIS | VIYSDGHRTFYGDSVK | GRGAGTFDS | 0.59 / 0.60 / 0.49 | 4 of 9 (5.11) |
| GFTLNSYGIS | VIYSHGRRTFYNDSVK | GRAAGTFFS | nd / nd / nd | 2 of 9 (3.99) |
| GFTLNWYGIS | VIYSDGRRTFYGDGVC | GRAAGTFDS | 5.63 / 4.04 / nd | 4 of 9 (4.58) |
| GFTLNSYGRS | VIVSDGRRTFYGDSVK | GRAAGTMDS | nd / nd / nd | 1 of 9 (3.61) |
| GFTLNSSGIE | VIWSDGRRTFYGDSVK | GRAAGTFDS | nd / nd / nd | 4 of 9 (3.79) |
| GFTLNSYGIS | VIYSDGRETFYGDSVS | GRAAGTFDS | 3.48 / nd / 4.94 | 2 of 9 (4.79) |
| GFTLNSYGIS | VTYSDGRRTFYGDQTK | GRAAGTFDS | nd / nd / 4.13 | 1 of 9 (3.84) |

Excerpt, the first 3 entries:

{"CDR-H1": "GFTLNSYGIW", "CDR-H2": "VIYSDGRRTFYGDYVK", "CDR-H3": "TRAAGTFDS", "log10 Kd, replicates": "nd / nd / nd", "signal with controls": "0 of 9"}
{"CDR-H1": "YFTLNSYGIS", "CDR-H2": "VIYSDGQRTVYGDSVK", "CDR-H3": "GRAAGTFDS", "log10 Kd, replicates": "3.21 / 2.80 / nd", "signal with controls": "1 of 9 (3.49)"}
{"CDR-H1": "GFTLNSYFIS", "CDR-H2": "VIYSDGRRTFYGDSVW", "CDR-H3": "GRAWGTFDS", "log10 Kd, replicates": "4.54 / 4.52 / nd", "signal with controls": "3 of 9 (4.84)"}